Earlier results in patent US20080077374A1, “Method for predicting biological, biochemical, biophysical or pharmacological characteristics of a substance” (priority 2006, published 2008).

Tested on: male Sprague Dawley rats
Conditions: SpragueDawley rats

In the case of `S=C=Nc1cccc2ccccc12` [ANIT], the Subclass/Indication is given as “Toxicant” and the 2nd toxicity (refinement of the principal toxicity) is given as “Direct r. &”.
In the case of `CO[C@@]12[C@H](COC(N)=O)C3=C(C(=O)C(C)=C(N)C3=O)N1C[C@@H]1N[C@@H]12` [Mitomycin], the Subclass/Indication is listed as “Toxin”, the Diagnosis cc (clinical chemistry) is listed as “+” and the Main target (main toxicity target) is listed as “Nephrotoxic”.
